Laboratory results as given in ChEMBL document CHEMBL1135510, “Common and selective molecular determinants involved in metabotopic glutamate receptor agonist activity” (J Med Chem, 2002).

Protein sequences, listed by entry. Tags and fused reporters are not part of them. Lines headed by an entry give the natural chain unless they say otherwise; changes in a name come on top.
UniProt P23385: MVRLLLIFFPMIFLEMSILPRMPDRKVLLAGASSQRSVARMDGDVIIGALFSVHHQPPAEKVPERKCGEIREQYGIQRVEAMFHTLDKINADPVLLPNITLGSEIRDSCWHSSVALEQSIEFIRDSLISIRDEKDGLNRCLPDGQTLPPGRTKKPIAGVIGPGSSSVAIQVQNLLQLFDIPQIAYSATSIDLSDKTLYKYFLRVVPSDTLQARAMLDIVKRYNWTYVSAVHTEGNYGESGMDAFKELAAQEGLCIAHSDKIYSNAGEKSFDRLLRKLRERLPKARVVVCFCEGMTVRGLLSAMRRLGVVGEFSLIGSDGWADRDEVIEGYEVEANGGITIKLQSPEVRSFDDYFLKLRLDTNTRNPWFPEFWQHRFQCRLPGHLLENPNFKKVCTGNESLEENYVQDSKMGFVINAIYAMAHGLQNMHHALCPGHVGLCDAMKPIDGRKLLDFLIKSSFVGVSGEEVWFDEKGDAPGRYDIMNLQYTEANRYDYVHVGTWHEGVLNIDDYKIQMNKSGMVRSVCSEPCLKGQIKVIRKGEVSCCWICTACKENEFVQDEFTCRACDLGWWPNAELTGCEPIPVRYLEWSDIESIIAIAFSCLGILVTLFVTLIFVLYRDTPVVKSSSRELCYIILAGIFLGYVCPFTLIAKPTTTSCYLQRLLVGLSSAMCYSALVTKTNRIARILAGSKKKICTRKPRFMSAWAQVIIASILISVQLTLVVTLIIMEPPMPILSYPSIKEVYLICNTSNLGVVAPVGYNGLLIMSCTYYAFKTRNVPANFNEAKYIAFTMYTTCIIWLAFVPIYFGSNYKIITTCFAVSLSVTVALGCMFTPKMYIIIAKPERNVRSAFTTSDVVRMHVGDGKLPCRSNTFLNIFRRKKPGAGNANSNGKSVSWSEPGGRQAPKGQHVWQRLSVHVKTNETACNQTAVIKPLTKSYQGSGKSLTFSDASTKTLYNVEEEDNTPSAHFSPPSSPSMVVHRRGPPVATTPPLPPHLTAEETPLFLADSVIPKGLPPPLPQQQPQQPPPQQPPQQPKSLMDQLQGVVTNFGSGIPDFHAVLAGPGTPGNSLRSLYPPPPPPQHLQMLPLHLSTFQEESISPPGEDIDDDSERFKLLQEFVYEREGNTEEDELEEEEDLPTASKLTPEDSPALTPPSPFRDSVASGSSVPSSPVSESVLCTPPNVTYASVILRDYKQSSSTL

Molecular target: Metabotropic glutamate receptor 1 (Rattus norvegicus, UniProt P23385)
Test: Inhibition of binding to rat mGluR1a (metabotropic glutamate receptor) expressed in HEK-293 cells
Assay type: cell-based, HEK293

## N[C@@H](Cn1oc(=O)[nH]c1=O)C(=O)O [QUISQUALATE]
  Ki: 10 nM
